# Measured affinities in a library of Ab-14 heavy chain variants

Target: peptide PDVDLGDISGINAS, taken from heptad repeat 2 (HR2) of SARS-CoV-2 spike.

Parent scFv Ab-14: VH joined to VL by three GGGGS repeats. Changes lie in the heavy chain CDRs alone.
VH: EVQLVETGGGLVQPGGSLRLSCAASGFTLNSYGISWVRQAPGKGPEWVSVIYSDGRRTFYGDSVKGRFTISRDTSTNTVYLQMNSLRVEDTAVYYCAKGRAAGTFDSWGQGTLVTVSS
VL: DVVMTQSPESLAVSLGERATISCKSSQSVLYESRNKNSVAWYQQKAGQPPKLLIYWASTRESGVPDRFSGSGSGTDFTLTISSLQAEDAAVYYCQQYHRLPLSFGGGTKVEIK

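Phage display of a naive human antibody library on the peptide gave the parent. These sequences belong to a second round, designed from the earlier measurements on random variants of the parent. Several design methods are mixed in this list. The assay is AlphaSeq: two haploid yeast populations carry antibody and antigen on their surface. The frequency of each diploid, read from paired DNA barcodes, reflects how well the two displayed proteins bind. A regression on co-assayed BCL2-family reference pairs converts the normalised counts of each replicate to an apparent Kd. Mating was done six times.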

Variants are written as CDR1, CDR2 and CDR3 of the heavy chain (limits as in the source). Parent: GFTLNSYGIS, VIYSDGRRTFYGDSVK, GRAAGTFDS.
Numbers give log10(Kd / nM), so 0 is 1 nM and 3 is 1 µM. Smaller is tighter.
A mean of the replicates is given; it leaves out those without a signal.
"nd" means that the variant was in the library but no mating with the target was seen in any replicate; the authors take this as a sign of poor binding, and no number exists.
The authors averaged sequences with at least three values out of six and counted those with two or fewer as poor binders.
Three control strains display no target. For all heavy chain designs, 1% of the pairings with them gave a signal, with a median of 2.08 and one signal in twenty below 0.84, so weak values seen in few replicates may be background.
The parent sequence was in this pool as ten entries: three were never detected, three once, and four in most replicates, with averages from 0.34 to 2.37.
The range of this assay differs from that of the first round, and the authors advise against merging the two.

The variant GFDLDEYGIS, VIYADGSRTAYSKNVK, GEFDDMVLV gave nd (0 of 6 replicates).
The variant GFTLNEYGIS, VIYSDGRRTFYSDSVK, GRQAGTFDT gave 0.51 (1 of 6 replicates).
The variant GFNIDEYGIS, VIYADGLRYHYANSVK, GEMAGTFMV gave 2.26 (1 of 6 replicates).
The variant GFHLNEYGIS, VIYSDGRRTMYGDSVK, GRAAGTFDS gave 0.66 (5 of 6 replicates).
The variant GFSLNEYGIS, VIYSDGRRTFYTDSVK, GRYAGTFDS gave 0.34 (6 of 6 replicates).
The variant GYDLQEYGVS, VIYADGRRSVYINSVK, GGSAGTFVF gave 0.83 (5 of 6 replicates).
The variant GFDLNEYGIS, VIYADGSRTAYSDSVK, GEVAGTFDV gave -0.26 (6 of 6 replicates).
The variant GFNLDEYGIS, VIYADGMRTFYSDSVK, GEVAGTFDI gave -0.23 (6 of 6 replicates).
The variant GFDLNEYGIS, VIYADGMRTAYTDNVK, GNQAGTFDV gave -0.99 (6 of 6 replicates).
The variant GFGLDEYGIS, VIYADGVRRSYVDNVK, GFDGEGSIV gave nd (0 of 6 replicates).
The variant GFDLNEYGIS, VIYADGVRTAYADDVK, GNQAGTFDT gave 1.67 (3 of 6 replicates).
The variant GFTLNDYGIS, VIYSWGRRTQYIDSVK, TPAAGTFDS gave 2.59 (1 of 6 replicates).
The variant GFDLNEYGIS, VIYADGQRTVYADSVK, GNVAGTFDL gave -0.75 (6 of 6 replicates).
The variant GFTLNSYGIS, VIYSDGRRTFYSDSVK, GREAGTFDT gave 0.04 (6 of 6 replicates).
The variant GFDLNEYGIS, VIYADGRRTVYADSVK, GNVAGTFDV gave -0.52 (6 of 6 replicates).
The variant GFGLNEYGIS, VIYSDGRRTFYADSVK, GRAAGTFDS gave -0.03 (6 of 6 replicates).
The variant GFDLGEYGIS, VIYADGRRKGYSDAVK, GINSINVTV gave nd (0 of 6 replicates).
The variant GFGLQSYGIS, VIYSDGRRTFYGDSVK, GGAAGTFDS gave nd (0 of 6 replicates).
The variant GFDLNEYGIS, VIYADGMRTAYADSVK, GGNAGTFDM gave -0.53 (6 of 6 replicates).
The variant GFTLNSYGIS, VIYSDGVRTFYGDSVK, GRVAGTFDS gave 0.97 (6 of 6 replicates).
The variant GFQLNSYGIS, VIYSDGRRTFYADSVK, GEAAGTFDS gave 1.97 (6 of 6 replicates).
The variant GFDLNEYGIS, VIYADGSRTAYSDSVK, GNQAGTFDS gave -0.24 (6 of 6 replicates).
The variant GFELNSYGIS, VIYSDGRRTFYIDSVK, GWVAGTFDS gave 0.70 (6 of 6 replicates).
The variant GFNLNEYGIS, VIYADGKRYEYIDSVK, GIVVGKVLY gave 2.93 (1 of 6 replicates).
The variant GFNLNSYGIS, VIYSDGRRTFYNDSVK, GRNAGIFDS gave nd (0 of 6 replicates).
The variant GFDLNSYGIS, VIYSDGRRTFYGDQVK, GNTAGTFDS gave -0.04 (6 of 6 replicates).
The variant GFTLNSYGIS, VIYSDGRRTFYGDSVK, GRRAGTFDS gave nd (0 of 6 replicates).
The variant GFTLNEYGIS, VIYSDGMRTFYGDSVK, GRAAGTFNS gave nd (0 of 6 replicates).
The variant GFDLNEYGIS, VIYADGRRTFYTDDVK, GQNAGTFDV gave -1.15 (6 of 6 replicates).
The variant GFDLNEYGIS, VIYADGQRTAYADSVK, GEVAGTFDL gave -0.30 (6 of 6 replicates).
The variant GFDLNEYGIS, VIYADGVRTAYVDSVK, GNNAGTFDI gave -0.07 (6 of 6 replicates).
The variant GFTLMSYGIS, VIYSDGRRTFYLWSVK, GEAAQTFPS gave nd (0 of 6 replicates).
The variant GFDLDEYGIS, VIYADGRRTFYTDSVK, GNVAGTFDS gave -0.43 (6 of 6 replicates).
The variant GFNLDEFGIS, VIYADGMRTVYSQDVK, GQNVEFTVV gave nd (0 of 6 replicates).
The variant GFDLNEYGIS, VIYADGMRTAYADNVK, GNVAGTFDI gave -1.18 (5 of 6 replicates).
The variant GFDLNSYGIS, VIYSDGRRTFYADSVK, GQTAGTFDS gave 0.08 (6 of 6 replicates).

Repeated from above, the 2 best binders with a signal in all replicates:

CDR-H1	CDR-H2	CDR-H3	mean log10 Kd (nM)	detected
GFDLNEYGIS	VIYADGRRTFYTDDVK	GQNAGTFDV	-1.15	6/6
GFDLNEYGIS	VIYADGMRTAYTDNVK	GNQAGTFDV	-0.99	6/6

Values reported by Li et al. 2023, doi:10.1038/s41467-023-39022-2 (FLAb copy).